Laboratory results: PubChem BioAssay AID2751 (The Scripps Research Institute Molecular Screening Center, 2010)
This is a selection; strong and weak results do not stand in their true shares. Calls of active or inactive are those of the source. Rule as the data show it: active = inhibition above about 43%; inactive = the rest.

By UniProt entry, the sequences of proteins in these tests, tags left out.
UniProt Q4J6C6, whole entry: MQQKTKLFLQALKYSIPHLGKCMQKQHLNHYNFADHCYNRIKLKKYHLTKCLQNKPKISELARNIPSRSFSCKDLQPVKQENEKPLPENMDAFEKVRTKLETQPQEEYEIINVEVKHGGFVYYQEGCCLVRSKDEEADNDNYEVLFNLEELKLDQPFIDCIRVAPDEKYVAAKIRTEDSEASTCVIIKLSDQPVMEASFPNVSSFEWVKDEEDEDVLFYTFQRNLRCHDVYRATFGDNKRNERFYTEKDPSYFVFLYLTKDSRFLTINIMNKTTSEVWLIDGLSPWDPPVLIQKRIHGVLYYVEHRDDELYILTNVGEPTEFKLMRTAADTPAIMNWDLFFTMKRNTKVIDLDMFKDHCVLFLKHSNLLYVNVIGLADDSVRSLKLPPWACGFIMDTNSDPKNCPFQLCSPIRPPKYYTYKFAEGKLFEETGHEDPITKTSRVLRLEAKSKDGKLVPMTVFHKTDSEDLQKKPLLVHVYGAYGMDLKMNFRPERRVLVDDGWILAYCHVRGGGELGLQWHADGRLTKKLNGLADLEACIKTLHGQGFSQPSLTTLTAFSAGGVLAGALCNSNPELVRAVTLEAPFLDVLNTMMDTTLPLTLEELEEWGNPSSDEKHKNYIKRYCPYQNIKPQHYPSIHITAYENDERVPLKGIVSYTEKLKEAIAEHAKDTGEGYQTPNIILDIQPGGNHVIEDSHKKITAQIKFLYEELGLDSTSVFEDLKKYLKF

Each molecule was assayed against Prolyl endopeptidase-like (Homo sapiens) (UniProt Q4J6C6) (assay: PREPL enzyme inhibitors, primary screen, biochemical, fluorescence polarization (AID 2751;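 also: 0% = enzyme with DMSO and 100% = wells lacking enzyme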)). Conditions: recombinant PREPL, fluorescence polarization activity-based probe; at 5.96 µM; stronger effect = higher value.

Row | SMILES | inhibition
1 | O=C(NCC1(N2CCCCC2)CCCCC1)c1ccc(Cl)s1 | inactive: 14.8%
2 | O=C(OC1CN2CCC1CC2)C1c2ccccc2Oc2ccccc21 (stereo not given) | inactive: 20.1%
3 | CCOc1ccc(C)cc1CN(CCCl)CCCl | inactive: 4.74%
4 | COc1ccc(NC2CCN(CCc3ccccc3)CC2)c(OC)c1 | inactive: 13.5%
5 | O=C(NCC1(N2CCCCC2)CCCCC1)c1ccc(F)cc1 | inactive: -3%
6 | Cc1ccc(OCC(C)C)c(CN(CCCl)CCCl)c1 | inactive: 4.62%
7 | CCOC(=O)N1CCC(Nc2cccc(C)c2)CC1 | inactive: -1.96%
8 | COc1cc(OC)cc(C(=O)NCC2(N3CCCCC3)CCCCC2)c1 | inactive: 14.7%
9 | Fc1ccccc1NC1CCN(Cc2ccccc2)CC1 | inactive: -55.6%
10 | Cc1ccc(C(=O)NCC2(N3CCCCC3)CCCCC2)o1 | inactive: -2.11%
11 | CCN1CCC(Nc2cccc(F)c2)CC1 | inactive: 2.29%
12 | CN(C)c1ccc(C(=O)NCC2(N3CCCCC3)CCCCC2)cc1 | inactive: 39.9%
13 | O=C(NCC1(N2CCCCC2)CCCCC1)c1ccco1 | inactive: -13.2%
14 | CN1CCC(Nc2ccc(F)c(Cl)c2)CC1 | inactive: -7.16%
15 | CCOc1ncccc1C(=O)NCC1(N2CCOCC2)CCCCC1 | inactive: -0.29%
16 | CCCOc1ccc(C(=O)NCC2(N(C)C)CCCCC2)cc1 | inactive: -8.42%
17 | O=C(O)C1(Nc2ccccc2)CCN(Cc2ccccc2)CC1 | inactive: -22.4%
18 | CC(C)(C)OC(=O)N1CCC(Nc2ccccc2)CC1 | inactive: 2.87%

Row | SMILES | inhibition
19 | CCC(CO)(C(=O)OC1CN2CCC1CC2)c1ccccc1 (stereo not given) | inactive: 18.5%
20 | COc1cccc(C(=O)N(c2cc(C)cc(C)c2)C2CCN(C(=O)OC(C)(C)C)CC2)c1 | inactive: 10.1%
21 | COc1cc(OC)cc(C(=O)NCC2(N3CCOCC3)CCCCC2)c1 | inactive: -2.56%
22 | CCCOc1ccc(C)cc1CN(CCCl)CCCl | inactive: 5.66%
23 | CN1CCC(Nc2ccc(Cl)cc2)CC1 | inactive: -6.35%
24 | O=C(NCC1(N2CCOCC2)CCCCC1)c1cc(Br)ccc1Cl | inactive: 4.28%
25 | COc1cc(C(=O)NCC2(N3CCOCC3)CCCCC2)cc(OC)c1C | inactive: 6.88%
26 | COc1ccc(C(=O)NCC2(N3CCOCC3)CCCCC2)cc1OC | inactive: 0.14%
27 | N/C(=N\O)c1c(N)no[n+]1[O-] | inactive: 2.46%
28 | CCOC(=O)N1CCC(Nc2ccc(C)cc2)CC1 | inactive: 5.34%
29 | CCc1cc(C(=O)NCC2(N3CCCCC3)CCCCC2)sc1C | inactive: 4.63%
30 | O=C(OC1CN2CCC1CC2)C1c2ccccc2C=Cc2ccccc21 (stereo not given) | inactive: 13.4%
31 | CC(C)(C)OC(=O)N1CCC(N(C(=O)c2ccccc2)c2ccc(Cl)cc2)CC1 | inactive: 2.93%
32 | N#Cc1ccc(C(=O)NCC2(N3CCCCC3)CCCCC2)cc1 | inactive: -2.86%
33 | CCCN1CCC(Nc2cc(OC)cc(OC)c2)CC1 | inactive: 11.2%
34 | c1ccc(CN2CCC(Nc3ccccc3)CC2)cc1 | inactive: -3.78%
35 | CN(C)C1(CNC(=O)c2cccc(C#N)c2)CCCCC1 | inactive: -1.84%
